Laboratory results as given in patent US20060275211A1 (AGENSYS, published 2006).

Molecular target: T1, Tag5-161P2F10B, purified recombinant extracellular domain (ECD) of 161P2F10B (amino acids 46-875) (human, UniProt O14638 46-875)
T1 construct: also called recombinant 161P2F10B; Tag5-161P2F10B-ECD
Assay: SPR, MAb captured on CM5 chip, recombinant 161P2F10B 1-100 nM injected

koff: 0.00059 s⁻¹ | kon: 65000 M⁻¹ s⁻¹
B1: H16-7.200 (antibody, V domains shown)
VH: QVQLQESGPGLVKPSQTLSLTCTVSGGSITSGDYYWSWIRQHPGKGLEWFGFIYYSGSAYYNPSLKSRITISVDTSKNQFSLKLSSVTAADTAVYYCARERNYGGNSFDYWGQGTLVTVSS
VL: not shown
notes: Entries include the leader (VL: part of it) and a portion of the constant region; also called HA16-7.200
